## Yeast mating assay 2: variants of the scFv Ab-95

Data: MIT Lincoln Laboratory AlphaSeq set, Engelhart et al. 2022, doi:10.1038/s41597-022-01779-4, as distributed in FLAb.

Target: peptide PDVDLGDISGINAS, taken from heptad repeat 2 (HR2) of SARS-CoV-2 spike.

The variants keep the heavy chain, the linker and the frameworks of Ab-95 (scFv order VH, three GGGGS repeats, VL).
VH: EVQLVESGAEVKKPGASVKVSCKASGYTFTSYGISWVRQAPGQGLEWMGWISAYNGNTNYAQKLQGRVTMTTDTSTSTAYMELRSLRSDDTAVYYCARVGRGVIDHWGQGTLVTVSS
VL: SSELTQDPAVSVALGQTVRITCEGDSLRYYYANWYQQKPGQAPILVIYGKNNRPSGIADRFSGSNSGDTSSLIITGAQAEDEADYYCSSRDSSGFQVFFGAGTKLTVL

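Phage display of a naive human antibody library on the peptide gave the parent. In library AAYL52, one, two or three CDR residues were substituted; doubles and triples were drawn at random. AlphaSeq pools MATa yeast showing the antibodies with MATalpha yeast showing the peptide. Pairs that bind mate more often; barcode pairs of the diploids are counted by sequencing. Each replicate has its own calibration line, from reference interactions of the BCL2 family. Each pool was mated in three replicate cultures.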

Each variant's VL is given in full. Values are apparent Kd, the geometric mean of the replicates that gave a signal; lower means stronger binding. A pair that was not seen in any replicate is written "no signal"; this usually means weak binding, but a binder can also be missed. Three control strains display no target. For library AAYL52, 28% of the pairings with them gave a signal, with a median of 8.2 µM and one signal in twenty below 800 nM, so weak values seen in few replicates may be background.

VL,apparent Kd,replicates with signal
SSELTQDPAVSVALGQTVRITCEGDSLRFYYANWYQQKPGQAPILVIYGKNRRKSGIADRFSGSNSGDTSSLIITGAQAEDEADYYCSSRDSSGFQVFFGAGTKLTVL,no signal,0/3
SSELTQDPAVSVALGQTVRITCEGDSLRYYMANWYQQKPGQAPILVIYGKNNRPSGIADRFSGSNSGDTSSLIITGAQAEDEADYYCCSRDSSGFVVFFGAGTKLTVL,570 nM,3/3
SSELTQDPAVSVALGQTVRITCEDDSDRYYPANWYQQKPGQAPILVIYGKNNRPSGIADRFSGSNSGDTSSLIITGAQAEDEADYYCSSRDSSGFQVFFGAGTKLTVL,1.5 µM,2/3
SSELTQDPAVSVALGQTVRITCEGDSLRYYYANWYQQKPGQAPILVIYGKNRRPSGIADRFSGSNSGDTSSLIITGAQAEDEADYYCWSRDSSGFQLFFGAGTKLTVL,22 µM,1/3
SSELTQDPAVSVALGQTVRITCEIDSLRRYYANWYQQKPGQAPILVIYGKNNRPSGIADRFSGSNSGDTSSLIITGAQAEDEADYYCSSRDSSGTQVFFGAGTKLTVL,1.2 µM,2/3
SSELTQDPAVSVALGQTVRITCEGDSLRYYYANWYQQKPGQAPILVIYGKNGRPSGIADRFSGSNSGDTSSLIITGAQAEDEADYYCSSRDSSHFWVFFGAGTKLTVL,1.9 µM,2/3
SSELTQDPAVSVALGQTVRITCEGDSLRYNYANWYQQKPGQAPILVIYGKNNKPSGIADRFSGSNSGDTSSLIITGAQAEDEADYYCSSRTSSGFQVFFGAGTKLTVL,16 nM,3/3
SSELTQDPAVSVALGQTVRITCEVDSLRYYYANWYQQKPGQAPILVIYGKANRPSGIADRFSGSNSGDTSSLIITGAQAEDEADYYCSSRDSSGFQVMFGAGTKLTVL,13 µM,2/3
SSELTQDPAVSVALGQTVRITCEGDNLRYYYANWYQQKPGQAPILVIYGYNNRPSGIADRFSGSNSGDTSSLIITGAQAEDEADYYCSSRDSEGFQVFFGAGTKLTVL,35 µM,1/3
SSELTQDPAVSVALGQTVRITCEGDNLRYTYANWYQQKPGQAPILVIYGKNNKPSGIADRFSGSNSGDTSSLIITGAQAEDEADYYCSSRDSSGFQVFFGAGTKLTVL,9.8 nM,3/3
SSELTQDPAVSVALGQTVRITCEGDSLHYYYANWYQQKPGQAPILVIYWKNNRPSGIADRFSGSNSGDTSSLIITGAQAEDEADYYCSSRNSSGFQVFFGAGTKLTVL,no signal,0/3
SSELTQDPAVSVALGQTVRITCEGDSLRYYYANWYQQKPGQAPILVIYGINNRPSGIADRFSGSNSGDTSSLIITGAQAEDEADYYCMSRDSSGFQLFFGAGTKLTVL,no signal,0/3
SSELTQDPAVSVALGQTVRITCEGDSTRYYYANWYQQKPGQAPILVIYGKNNRPSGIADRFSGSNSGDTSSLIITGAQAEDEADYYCSSRDCSGFQVHFGAGTKLTVL,6.8 µM,3/3

Continued, with the values leading:

apparent Kd,replicates with signal,VL
no signal,0/3,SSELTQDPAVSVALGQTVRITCEGDSLRYYYLNWYQQKPGQAPILVIYGKNSRLSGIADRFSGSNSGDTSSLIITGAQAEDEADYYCSSRDSSGFQVFFGAGTKLTVL
9.9 µM,2/3,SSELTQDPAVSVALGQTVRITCEGDSWRYYYANWYQQKPGQAPILVIYGKNNRPSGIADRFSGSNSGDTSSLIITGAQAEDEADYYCSSRDSHGFQVPFGAGTKLTVL
4.4 µM,2/3,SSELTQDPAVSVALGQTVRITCEGDSLRYYYANWYQQKPGQAPILVIYGSNLRPSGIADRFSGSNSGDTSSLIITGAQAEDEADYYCSSRLSSGFQVFFGAGTKLTVL
5.1 µM,2/3,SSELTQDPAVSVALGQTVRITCERDSLRYYLANWYQQKPGQAPILVIYGKNNRPSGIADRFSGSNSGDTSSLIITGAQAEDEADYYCSSRDSSGFNVFFGAGTKLTVL
2.7 µM,3/3,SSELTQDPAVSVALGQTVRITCEHDSLRYYYANWYQQKPGQAPILVIYGKNNRPSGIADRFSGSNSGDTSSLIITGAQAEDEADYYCSSRDSGGFQCFFGAGTKLTVL
47 µM,1/3,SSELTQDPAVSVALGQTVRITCEGDSLRYYYVNWYQQKPGQAPILVIYGKNNRVSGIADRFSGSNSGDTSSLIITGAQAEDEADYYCSSRDSYGFQVFFGAGTKLTVL
1.8 µM,3/3,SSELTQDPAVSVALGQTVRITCEGDSLRYYKANWYQQKPGQAPILVIYGKNNRPSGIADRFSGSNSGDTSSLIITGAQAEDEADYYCSSRDSNGFKVFFGAGTKLTVL
160 nM,3/3,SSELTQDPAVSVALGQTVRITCEGASLRYYYANWYQQKPGQAPILVIYGKNNRPSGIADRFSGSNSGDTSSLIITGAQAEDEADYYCSSRDSMGFQVFFGAGTKLTVL
12 µM,1/3,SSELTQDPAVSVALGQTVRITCEGDSLRYYYANWYQQKPGQAPILVIYGKNGRPSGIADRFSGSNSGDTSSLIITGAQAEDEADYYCSSRCSPGFQVFFGAGTKLTVL
550 nM,3/3,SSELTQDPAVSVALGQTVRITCEGDSLRYWYANWYQQKPGQAPILVIYGKNNRPSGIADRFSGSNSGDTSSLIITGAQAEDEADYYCSSRDSSGNRVFFGAGTKLTVL
no signal,0/3,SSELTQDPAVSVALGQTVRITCEGDSLRYYYATWYQQKPGQAPILVIYGKNNRPSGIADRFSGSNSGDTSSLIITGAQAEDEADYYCSSYDSSGFTVFFGAGTKLTVL
24 µM,2/3,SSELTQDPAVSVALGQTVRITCDGDSLRYYYAAWYQQKPGQAPILVIYGKNNRPSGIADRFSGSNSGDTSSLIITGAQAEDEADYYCSSRDSSGFQIFFGAGTKLTVL
7.8 µM,3/3,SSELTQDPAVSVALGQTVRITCEGDSLRSHYENWYQQKPGQAPILVIYGKNNRPSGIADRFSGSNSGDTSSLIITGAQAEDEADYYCSSRDSSGFQVFFGAGTKLTVL

The opening 2 entries, copied out:

VL,apparent Kd,replicates with signal
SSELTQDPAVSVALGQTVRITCEGDSLRFYYANWYQQKPGQAPILVIYGKNRRKSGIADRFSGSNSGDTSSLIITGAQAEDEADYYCSSRDSSGFQVFFGAGTKLTVL,no signal,0/3
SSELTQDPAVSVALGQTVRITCEGDSLRYYMANWYQQKPGQAPILVIYGKNNRPSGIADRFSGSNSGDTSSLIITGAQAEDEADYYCCSRDSSGFVVFFGAGTKLTVL,570 nM,3/3

For reference, the parent read 200 nM as the reference entry and 180 nM as a member of this library.